Measurements as given in ChEMBL document CHEMBL1131091, “Discovery of potent, achiral matrix metalloproteinase inhibitors” (J Med Chem, 1998).

Protein sequences, listed by entry. Tags and fused reporters are not part of them. Lines headed by an entry give the natural chain unless they say otherwise; changes in a name come on top.
UniProt P08254: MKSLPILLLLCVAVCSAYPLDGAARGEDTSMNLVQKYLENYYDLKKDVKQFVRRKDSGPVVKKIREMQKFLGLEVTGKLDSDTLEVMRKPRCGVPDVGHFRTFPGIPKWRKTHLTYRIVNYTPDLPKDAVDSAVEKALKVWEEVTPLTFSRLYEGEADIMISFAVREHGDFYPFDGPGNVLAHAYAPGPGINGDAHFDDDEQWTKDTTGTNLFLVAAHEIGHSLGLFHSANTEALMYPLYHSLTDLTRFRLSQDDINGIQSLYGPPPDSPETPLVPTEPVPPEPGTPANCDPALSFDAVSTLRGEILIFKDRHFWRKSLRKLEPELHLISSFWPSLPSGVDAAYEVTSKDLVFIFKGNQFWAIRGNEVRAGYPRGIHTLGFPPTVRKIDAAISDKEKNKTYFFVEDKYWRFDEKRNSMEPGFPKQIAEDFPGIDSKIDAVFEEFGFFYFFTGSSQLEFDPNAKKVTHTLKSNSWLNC

Target: Stromelysin-1 (Homo sapiens, UniProt P08254)
Assay: Inhibition of Matrix metalloprotease-3

`COc1ccc(S(=O)(=O)N2CC(C)(C)CN(S(=O)(=O)c3ccc(OC)cc3)C2C(=O)NO)cc1` gave an IC50 of 18.4 nM.
